Test results from patent US9902714B2, “Quinoxaline derivatives useful as FGFR kinase modulators” (ASTEX THERAPEUTICS LTD, priority 2014, dated 2018).
pKd: −log10 of the molar value.

By UniProt entry, the sequences of proteins in these tests, tags left out. Residues count along the entry.
UniProt P35968, 20-1356: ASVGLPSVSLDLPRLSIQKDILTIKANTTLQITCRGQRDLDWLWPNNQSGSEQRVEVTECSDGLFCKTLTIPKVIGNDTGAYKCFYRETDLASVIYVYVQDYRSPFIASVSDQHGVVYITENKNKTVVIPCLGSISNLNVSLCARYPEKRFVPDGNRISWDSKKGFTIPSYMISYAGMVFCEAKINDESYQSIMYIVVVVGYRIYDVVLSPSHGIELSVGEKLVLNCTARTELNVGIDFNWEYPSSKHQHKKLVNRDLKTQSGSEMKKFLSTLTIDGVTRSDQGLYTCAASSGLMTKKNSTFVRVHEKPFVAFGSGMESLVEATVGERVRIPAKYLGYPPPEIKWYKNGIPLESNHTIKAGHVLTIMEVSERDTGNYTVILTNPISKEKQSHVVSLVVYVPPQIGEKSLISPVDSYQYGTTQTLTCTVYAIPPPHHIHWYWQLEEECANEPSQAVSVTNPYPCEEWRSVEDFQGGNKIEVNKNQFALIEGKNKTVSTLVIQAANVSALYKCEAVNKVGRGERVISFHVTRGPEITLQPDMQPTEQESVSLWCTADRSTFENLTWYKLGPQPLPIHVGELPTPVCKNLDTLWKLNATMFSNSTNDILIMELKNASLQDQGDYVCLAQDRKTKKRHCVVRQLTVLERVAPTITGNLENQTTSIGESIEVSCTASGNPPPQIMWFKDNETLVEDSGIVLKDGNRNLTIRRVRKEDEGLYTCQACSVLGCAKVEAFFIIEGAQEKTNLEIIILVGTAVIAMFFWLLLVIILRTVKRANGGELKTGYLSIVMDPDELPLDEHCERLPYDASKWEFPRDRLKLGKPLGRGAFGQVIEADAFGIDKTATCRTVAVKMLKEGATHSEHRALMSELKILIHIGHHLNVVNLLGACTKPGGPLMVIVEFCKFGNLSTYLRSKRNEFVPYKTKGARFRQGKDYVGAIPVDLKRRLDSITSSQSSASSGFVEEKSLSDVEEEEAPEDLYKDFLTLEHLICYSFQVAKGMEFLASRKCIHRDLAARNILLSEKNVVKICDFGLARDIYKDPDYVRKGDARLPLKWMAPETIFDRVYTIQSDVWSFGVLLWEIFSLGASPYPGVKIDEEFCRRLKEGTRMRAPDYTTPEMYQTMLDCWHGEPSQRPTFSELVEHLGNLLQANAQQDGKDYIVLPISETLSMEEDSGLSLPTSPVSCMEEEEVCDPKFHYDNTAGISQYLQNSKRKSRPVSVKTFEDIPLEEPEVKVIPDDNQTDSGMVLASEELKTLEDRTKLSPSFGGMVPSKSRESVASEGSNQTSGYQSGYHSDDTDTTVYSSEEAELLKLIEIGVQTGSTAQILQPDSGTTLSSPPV

Target: VEGFR2 (Homo sapiens (Human), UniProt P35968)
Experiment: Enzyme binding assay (KINOMEscan) VEGFR2
Protocol: Enzyme Binding Assays (KINOMEscan®)
Kinase enzyme binding affinities of compounds disclosed herein were determined using the KINOMEscan® technology performed by DiscoveRx Corporation, San Diego, Calif., USA (www.kinomescan.com). Table A3 reports the obtained Kd values (nM), with the Kd being the inhibitor binding constant: […]

pKd: < 5.52
SMILES: COc1cc(OC)c2c(c1)N(c1ccc3ncc(-c4cnn(C)c4)nc3c1)CCN(C(C)C)C2 [Compound 1]
